Each structure is given as a SMILES string. Where “and” joins values, the source holds several entries; their conditions need not be identical. Equal values may be shown once. The entries are a selection whose mix differs from that of the whole data set. Some results for these compounds are left out of this collection, so the calls shown say nothing about other tests. Calls of active or inactive are those of the source. Calls follow the shape of the dose curve; as a rule, active = well fitted activation curve with a large enough effect; inconclusive = small, poorly fitted or top-dose-only effect; inactive = flat fitted curve, though single readings scatter.

The experiment is described as follows: qHTS of Nrf2 Activators. Also: % of control where 0% means no effect; nearly all actives have a fitted effect of over 65% in size. To be noted: AREc32 ARE-luciferase reporter (MCF7-derived line), luminescence, 24 h; at 46.1 µM (top of the series). The source says: Many diseases have some form of oxidative stress injury and ties to inflammation, causing a host of problems for the patient. The antioxidant response element (ARE) plays an important role in alleviating the harmful effects of oxidative stress. The antioxidant response element (ARE) is a transcriptional regulatory element involved in the activation of genes coding for a number of antioxidant proteins and detoxifying enzymes. These enzymes work in concert to protect tissues from oxidative insults and chemical toxicities in human hepatocytes and immune cells. The protective effects of ARE activation are primarily triggered through Nrf2 (NF-E2-related factor) binding to and activating AREs. It is known that Nrf2 controls the production of over 250 antioxidant and detoxification proteins (Hu et al., 2006), thereby protecting tissues by increasing cellular antioxidant content and suppressing inflammatory signaling pathways. The transcription factor Nrf2 is a central link between oxidative chemicals, such as phenolic antioxidants and electrophilic compounds, and the activation of ARE. Nrf2 levels are constitutively low as a consequence of its interaction with Keap1, which targets its degradation (Zipper and Mulcahy, 2002). Electrophiles react with key cysteine residues in Keap1, releasing Nrf2 and allowing its translocation to the nucleus. Once within the nucleus, Nrf2 complexes with coactivators such as p300, and binds to the AREs to induce gene transcription of cytoprotective enzymes, resulting in the prevention of toxicity. Activation of Nrf2 protects tissues by increasing cellular antioxidant content and suppressing inflammatory signaling pathways. Identifying novel and potent Nrf2 activators by using the AREc32 cell line to detect ARE activation by small molecules will lead to the identification and development of probes to study protective pathways in multiple tissues. These specific probes are essential to study the ARE pathway, and eventually to determine whether this pathway does activate genes that could protect against a host of diseases, including cardiovascular diseases, obesity, diabetes, Alzheimer's, and Parkinson's disease.
This project's aim is to identify novel and potent Nrf2 activators by using the AREc32 cell line to detect ARE activation by small molecules, which will lead to the identification and development of probes to study the ARE pathway.
NIH Chemical Genomics Center [NCGC]
NIH Molecular Libraries Probe Centers Network [MLPCN]
Assay Submitter (PI): Curtis Klaassen, University of Kansas Medical Center
5 uL of 1000 cells/well of AREc32_Fluc cells are seeded into 1536-well plate in OPTI-MEM medium with 5% FBS. The plates are incubated overnight at 37 deg C with 5% CO2. Then through pin tool transfer, 23 nL of compounds are added to each well before a 24 hr incubation at 37 deg C with 5% CO2. After the addition of 2.5 uL of Steady-Glo. the plates are kept at RT for 30 min, before they are read on the ViewLux.
Consider `Cc1ccc(C(=O)NCC2(N3CCCCC3)CCCCC2)cc1`, for which the activation was inactive: 0.0048%. Consider `CN(C)C1(CNC(=O)c2ccccc2F)CCCCC1`, for which the activation is inactive: -1.16%. In the case of `COc1cc(SC)ccc1C(=O)NCC1(N(C)C)CCCCC1`, the activation is inactive: -0.664%. On to `CN(C)C1(CNC(=O)c2cccc(Cl)c2)CCCCC1`, for which the activation is inactive: -0.22%. On to `CCN(CC)CC(C)C(C)OC(=O)C(O)(c1ccccc1)c1ccccc1` (stereo unspecified), for which the activation is inactive: -0.522%. As for `CC(C)N1C(=O)CC2(CCN(CCOC(=O)C(O)(c3ccccc3)c3ccccc3)CC2)C1=O`, the activation was inactive: -0.956%. In the case of `CN1[C@@H]2CC[C@H]1CC(OC(=O)C(O)(c1ccccc1)c1ccccc1)C2` (stereo partly specified), the activation is inactive: -0.759%. Take `O=C(NCC1(N2CCCCC2)CCCCC1)c1cc([N+](=O)[O-])ccc1Cl`: the activation was inactive: -0.468%. In the case of `CCOc1cccc(C(=O)NCC2(N(C)C)CCCCC2)c1`, the activation was inactive: -1.05%. As for `COc1ccc(C(=O)NCC2(N(C)C)CCCCC2)cc1`, the activation is inactive: -0.393%. The figure for `O=C(NCC1(N2CCCCC2)CCCCC1)c1cccc(Br)c1` is inactive: 2.51%. As for `Cc1cc(C(=O)NCC2(N3CCCCC3)CCCCC2)ccc1[N+](=O)[O-]`, the activation is inactive: -0.0115%. Take `CCN1CCCC(OC(=O)C2(O)c3ccccc3C=Cc3ccccc32)C1` (stereo unspecified): the activation is inactive: 0.917%.

Regarding `O=C(NCC1(N2CCCCC2)CCCCC1)c1cc(F)c(F)cc1Cl`, the activation was inactive: 0.245%.

As for `C=CCN1CCN(CCOC(=O)C(O)(c2ccccc2)c2ccccc2)CC1`, the activation was inactive: -0.491%.

On to `CCCCOc1ccccc1C(=O)NCC1(N(C)C)CCCCC1`, for which the activation was inactive: 0.828%. The value for `CN(C)C1CCCC1OC(=O)C(O)(c1ccccc1)c1ccccc1` (stereo unspecified) was inactive: -0.975%; that for `CN(C)c1ccc(C(=O)NCC2(N(C)C)CCCCC2)cc1` was inactive: 0.176%; that for `CN(C)C1(CNC(=O)c2ccccc2[N+](=O)[O-])CCCCC1` was inactive: -1.75%. The figure for `Cc1ccccc1C(=O)NCC1(N2CCCCC2)CCCCC1` is inactive: 0.761%; for `O=C(NCC1(N2CCCCC2)CCCCC1)c1cccc(Cl)c1` it is inactive: 0.331%.

With `COc1ccc(Cl)cc1C(=O)NCC1(N(C)C)CCCCC1`, the activation is inactive: 5.33%. On to `COc1cccc(C(=O)NCC2(N3CCCCC3)CCCCC2)c1`, for which the activation was inactive: -0.0447%. In the case of `COc1ccc(C(=O)NCC2(N(C)C)CCCCC2)cc1Cl`, the activation was inactive: 0.38%.

Consider `COc1cc(C(=O)NCC2(N(C)C)CCCCC2)c([N+](=O)[O-])cc1OC`, for which the activation is inactive: -1.32%. For the compound `CN(C)C1(CNC(=O)c2ccc(Br)cc2)CCCCC1`, the activation was inactive: -0.14%. For `O=C(OCCN1CCCC1)C(O)(c1ccccc1)c1ccccc1`, the activation was inactive: -0.554%. For the compound `CC(C)Oc1ccc(C(=O)NCC2(N(C)C)CCCCC2)cc1`, the activation was inactive: 0.892% and inactive: -0.627%. Regarding `CN(C)c1cccc(C(=O)NCC2(N(C)C)CCCCC2)c1`, the activation is inactive: -0.648%. With `C=C(C)C#CC(O)(C(=O)OC1CCN(C)CC1)c1ccccc1` (stereo unspecified), the activation is inactive: 4.99%. For the compound `COc1ccc(Br)c(C(=O)NCC2(N3CCCCC3)CCCCC2)c1`, the activation was inactive: 0.126%. The value for `Cc1cccc(C(=O)NCC2(N(C)C)CCCCC2)c1` was inactive: -0.544%; that for `COc1cc(C(=O)NCC2(N(C)C)CCCCC2)cc(OC)c1OC` was inactive: -0.533%; that for `CC(C)COc1ccc(C(=O)NCC2(N(C)C)CCCCC2)cc1` was inactive: 3.76%. Turning to `COc1cccc(C(=O)NCC2(N3CCOCC3)CCCCC2)c1`, the activation was inactive: -0.635%. For the compound `O=C(OC1CN2CCC1CC2)C(CO)(c1ccccc1)c1ccccc1` (stereo unspecified), the activation was inactive: -0.0622%.

(Values after PubChem BioAssay AID624171 (National Center for Advancing Translational Sciences (NCATS), 2012).)
